Literature values, collected in US9540379B2 (priority 2011, dated 2017).

Legend:
rats [1] = details: rat, in vivo; cited from earlier work
rats [2] = details: rat, in vivo; cited from earlier work; remark: listed apart in the source

SMILES: COc1ccc(Cc2nccc3cc(OC)c(OC)cc23)cc1OC [papaverine]
- effect on attentional set-shifting deficits (rats [1]): reverses attentional set-shifting deficits
- effect on cognitive deficits (rats [2]): positive effect
